In patent US7235627B2, “Derivatives of GLP-1 analogs” (Novo Nordisk A/S, priority 1996, dated 2007):

Experiment: Protraction of GLP-1 derivatives after s.c. administration: plasma concentration by RIA
Assay type: in vivo, pigs (50% Duroc, 25% Yorkshire, 25% Danish Landrace)
Conditions: healthy pigs, 0.5 nmol/kg sc, n=2

Arg^26,34Lys^38(N^ε-(ω-carboxypentadecanoyl))-GLP-1(7–38)-OH [Example 39]
plasma concentration, % of the maximum concentration for the individual compound (0.75 h after administration): 38%
plasma concentration, % of the maximum concentration for the individual compound (1 h after administration): 100%
plasma concentration, % of the maximum concentration for the individual compound (2 h after administration): 70%
plasma concentration, % of the maximum concentration for the individual compound (4 h after administration): 47%
plasma concentration, % of the maximum concentration for the individual compound (6 h after administration): 33%
plasma concentration, % of the maximum concentration for the individual compound (8 h after administration): 33%
plasma concentration, % of the maximum concentration for the individual compound (10 h after administration): 18%
plasma concentration, % of the maximum concentration for the individual compound (12 h after administration): 27%
plasma concentration, % of the maximum concentration for the individual compound (24 h after administration): 14%

Arg^26,34Lys^38(N^ε-(γ-glutamyl(N^α-hexadecanoyl)))-GLP-1(7–38)-OH [Example 40]
plasma concentration, % of the maximum concentration for the individual compound (0.75 h after administration): 47%
plasma concentration, % of the maximum concentration for the individual compound (1 h after administration): 19%
plasma concentration, % of the maximum concentration for the individual compound (2 h after administration): 50%
plasma concentration, % of the maximum concentration for the individual compound (4 h after administration): 100%
plasma concentration, % of the maximum concentration for the individual compound (6 h after administration): 51%
plasma concentration, % of the maximum concentration for the individual compound (8 h after administration): 56%
plasma concentration, % of the maximum concentration for the individual compound (10 h after administration): 34%
plasma concentration, % of the maximum concentration for the individual compound (12 h after administration): 14%
plasma concentration, % of the maximum concentration for the individual compound (24 h after administration): 0%

Lys^26,34-bis(N^ε-(ω-carboxytridecanoyl))-GLP-1(7–37)-OH [Example 32]
plasma concentration, % of the maximum concentration for the individual compound (0.75 h after administration): 55%
plasma concentration, % of the maximum concentration for the individual compound (1 h after administration): 53%
plasma concentration, % of the maximum concentration for the individual compound (2 h after administration): 90%
plasma concentration, % of the maximum concentration for the individual compound (4 h after administration): 83%
plasma concentration, % of the maximum concentration for the individual compound (6 h after administration): 88%
plasma concentration, % of the maximum concentration for the individual compound (8 h after administration): 70%
plasma concentration, % of the maximum concentration for the individual compound (10 h after administration): 98%
plasma concentration, % of the maximum concentration for the individual compound (12 h after administration): 100%
plasma concentration, % of the maximum concentration for the individual compound (24 h after administration): 100%

Arg^26,34 Lys^36(N^ε-(ω-carboxyheptadecanoyl))-GLP-1(7–36)-OH [Example 14]
plasma concentration, % of the maximum concentration for the individual compound (0.75 h after administration): 18%
plasma concentration, % of the maximum concentration for the individual compound (1 h after administration): 25%
plasma concentration, % of the maximum concentration for the individual compound (2 h after administration): 32%
plasma concentration, % of the maximum concentration for the individual compound (4 h after administration): 47%
plasma concentration, % of the maximum concentration for the individual compound (6 h after administration): 98%
plasma concentration, % of the maximum concentration for the individual compound (8 h after administration): 83%
plasma concentration, % of the maximum concentration for the individual compound (10 h after administration): 97%
plasma concentration, % of the maximum concentration for the individual compound (24 h after administration): 100%

Lys^26,34bis(N^ε-(ω-carboxyundecanoyl))-GLP-1(7–37)-OH [Example 17]
plasma concentration, % of the maximum concentration for the individual compound (0.75 h after administration): 76%
plasma concentration, % of the maximum concentration for the individual compound (1 h after administration): 71%
plasma concentration, % of the maximum concentration for the individual compound (2 h after administration): 91%
plasma concentration, % of the maximum concentration for the individual compound (4 h after administration): 100%
plasma concentration, % of the maximum concentration for the individual compound (6 h after administration): 84%
plasma concentration, % of the maximum concentration for the individual compound (8 h after administration): 68%
plasma concentration, % of the maximum concentration for the individual compound (10 h after administration): 30%
plasma concentration, % of the maximum concentration for the individual compound (24 h after administration): 9%

Arg^26,34Lys^38(N^ε-(ω-carboxyheptadecanoyl))-GLP-1(7–38)-OH [Example 13]
plasma concentration, % of the maximum concentration for the individual compound (0.75 h after administration): 15%
plasma concentration, % of the maximum concentration for the individual compound (1 h after administration): 22%
plasma concentration, % of the maximum concentration for the individual compound (2 h after administration): 38%
plasma concentration, % of the maximum concentration for the individual compound (4 h after administration): 59%
plasma concentration, % of the maximum concentration for the individual compound (6 h after administration): 97%
plasma concentration, % of the maximum concentration for the individual compound (8 h after administration): 85%
plasma concentration, % of the maximum concentration for the individual compound (10 h after administration): 100%
plasma concentration, % of the maximum concentration for the individual compound (24 h after administration): 76%

Arg^34Lys^26(N^ε-(ω-carboxyheptadecanoyl))-GLP-1(7–37)-OH [Example 11]
plasma concentration, % of the maximum concentration for the individual compound (0.75 h after administration): 24%
plasma concentration, % of the maximum concentration for the individual compound (1 h after administration): 47%
plasma concentration, % of the maximum concentration for the individual compound (2 h after administration): 59%
plasma concentration, % of the maximum concentration for the individual compound (4 h after administration): 71%
plasma concentration, % of the maximum concentration for the individual compound (6 h after administration): 100%
plasma concentration, % of the maximum concentration for the individual compound (8 h after administration): 94%
plasma concentration, % of the maximum concentration for the individual compound (10 h after administration): 100%
plasma concentration, % of the maximum concentration for the individual compound (24 h after administration): 94%

Arg^26,34Lys^36(N^ε-(ω-carboxyheptadecanoyl))-GLP-1(7–37)-OH [Example 12]
plasma concentration, % of the maximum concentration for the individual compound (0.75 h after administration): 36%
plasma concentration, % of the maximum concentration for the individual compound (1 h after administration): 54%
plasma concentration, % of the maximum concentration for the individual compound (2 h after administration): 65%
plasma concentration, % of the maximum concentration for the individual compound (4 h after administration): 94%
plasma concentration, % of the maximum concentration for the individual compound (6 h after administration): 80%
plasma concentration, % of the maximum concentration for the individual compound (8 h after administration): 100%
plasma concentration, % of the maximum concentration for the individual compound (10 h after administration): 85%
plasma concentration, % of the maximum concentration for the individual compound (24 h after administration): 93%

Arg^26,34Lys^38(N^ε-(γ-glutamyl(N^α-tetradecanoyl)))-GLP-1(7–38)-OH [Example 38]
plasma concentration, % of the maximum concentration for the individual compound (0.75 h after administration): 60%
plasma concentration, % of the maximum concentration for the individual compound (1 h after administration): 53%
plasma concentration, % of the maximum concentration for the individual compound (2 h after administration): 100%
plasma concentration, % of the maximum concentration for the individual compound (4 h after administration): 66%
plasma concentration, % of the maximum concentration for the individual compound (6 h after administration): 48%
plasma concentration, % of the maximum concentration for the individual compound (8 h after administration): 39%
plasma concentration, % of the maximum concentration for the individual compound (10 h after administration): 25%
plasma concentration, % of the maximum concentration for the individual compound (12 h after administration): 29%
plasma concentration, % of the maximum concentration for the individual compound (24 h after administration): 0%

Arg^34Lys^26(N^ε-(ω-carboxypentadecanoyl))-GLP-1(7–37)-OH [Example 25]
plasma concentration, % of the maximum concentration for the individual compound (0.75 h after administration): 73%
plasma concentration, % of the maximum concentration for the individual compound (1 h after administration): 92%
plasma concentration, % of the maximum concentration for the individual compound (2 h after administration): 100%
plasma concentration, % of the maximum concentration for the individual compound (4 h after administration): 98%
plasma concentration, % of the maximum concentration for the individual compound (6 h after administration): 82%
plasma concentration, % of the maximum concentration for the individual compound (8 h after administration): 24%
plasma concentration, % of the maximum concentration for the individual compound (10 h after administration): 16%
plasma concentration, % of the maximum concentration for the individual compound (12 h after administration): 16%
plasma concentration, % of the maximum concentration for the individual compound (24 h after administration): 16%
